## Apparent affinities of Ab-95 variants for a coronavirus HR2 peptide

Binding partner: SARS-CoV-2 spike HR2 peptide, sequence PDVDLGDISGINAS.

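Phage display of a naive human antibody library on the peptide gave the parent. Variants in AAYL52 differ from the parent at up to three CDR positions; double and triple changes were sampled at random. The scFvs were displayed on barcoded MATa yeast, the peptide on MATalpha yeast. Mating (16 h, 30 °C) was followed by selection of diploids and sequencing of their barcodes. The ratio of observed to expected reads was calibrated, replicate by replicate, on BCL2-family standards whose Kd was known from biolayer interferometry. The assay was run in three technical replicates.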

Ab-95 is the parent antibody, in scFv form: VH, then three GGGGS repeats, then VL. The heavy chain is unchanged in all variants.
VH: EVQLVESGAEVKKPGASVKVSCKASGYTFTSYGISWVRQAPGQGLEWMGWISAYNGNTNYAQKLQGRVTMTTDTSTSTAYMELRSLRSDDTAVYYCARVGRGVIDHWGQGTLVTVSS
VL: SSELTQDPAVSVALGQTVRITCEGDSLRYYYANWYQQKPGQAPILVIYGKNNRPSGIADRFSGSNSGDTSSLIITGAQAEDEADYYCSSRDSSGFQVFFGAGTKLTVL

Positions count from residue 1 of the parent VL; S55F puts F in place of S. All variants listed here change S93 of the VL, counted from its first residue. Numbers give log10(Kd / nM), so 0 is 1 nM and 3 is 1 µM. Smaller is tighter. A mean of the replicates is given; it leaves out those without a signal. Where no diploid with the target was found in any replicate, the entry reads "no signal": below detection, most likely a poor binder, though not proof of it. Empty control strains, which show no peptide, gave a signal in 28% of pairings with library AAYL52; the median was 3.91 and 95% of these signals were weaker than 2.90. No background was subtracted.

Variant S55F/S89F/S93H gave 1.92 (3 of 3 replicates). Variant G49C/S93D/F95A gave no signal (0 of 3 replicates). For R53T/S93V/F95N, the assay gave 3.95 (3 of 3 replicates). Variant S55E/S92A/S93E gave 2.67 (3 of 3 replicates). Variant P54K/D91K/S93R showed 2.92 (1 of 3 replicates). Variant N51K/S93T gave 3.41 (2 of 3 replicates). Variant Y30F/S93Q showed 2.97 (2 of 3 replicates).

With R53E/R90K/S93A the result was 4.72 (1 of 3 replicates). Variant S93H/V97A/F98I gave no signal (0 of 3 replicates). For E23Q/S92C/S93C, the assay gave no signal (0 of 3 replicates). Variant Y31G/S93D/G94M gave 2.98 (3 of 3 replicates). Variant R28E/K50G/S93F showed 2.78 (3 of 3 replicates). With N33R/S93L the result was 3.70 (3 of 3 replicates). For L27R/S93C, the assay gave no signal (0 of 3 replicates).

With K50G/S93W/F98N the result was 2.56 (1 of 3 replicates). For S26Y/R53C/S93N, the assay gave 4.49 (2 of 3 replicates). For L27P/K50P/S93K, the assay gave 3.67 (3 of 3 replicates). Variant N33D/S93P/F95E gave 3.51 (3 of 3 replicates). With A32K/D91R/S93A the result was 3.89 (2 of 3 replicates). With L27T/S88Q/S93F the result was 3.14 (2 of 3 replicates). With S93K/G94L/F95E the result was 3.55 (2 of 3 replicates).

Variant S92M/S93R/Q96D gave 1.99 (3 of 3 replicates). Variant R28E/S93Q/F98R gave 2.69 (3 of 3 replicates). Variant G24N/L27W/S93L gave 3.76 (2 of 3 replicates). With N51V/R53C/S93A the result was no signal (0 of 3 replicates). Variant A32R/R53D/S93F gave no signal (0 of 3 replicates). Variant R53K/S55T/S93N showed 3.37 (3 of 3 replicates). Variant Y30C/A32S/S93C showed 2.70 (3 of 3 replicates).

For G24C/N51D/S93K, the assay gave 3.47 (2 of 3 replicates). For N51M/S93V/F95E, the assay gave 4.23 (1 of 3 replicates). Variant E23G/G49F/S93T gave no signal (0 of 3 replicates). Variant K50Y/P54C/S93E gave no signal (0 of 3 replicates).

The first 4 variants above that were never detected:

changes	mean log10 Kd (nM)	replicates with signal
G49C/S93D/F95A	no signal	0/3
S93H/V97A/F98I	no signal	0/3
E23Q/S92C/S93C	no signal	0/3
L27R/S93C	no signal	0/3

Reference: Engelhart et al. 2022, doi:10.1038/s41597-022-01779-4. File: FLAb, binding data.